Test results from patent US10195218B2, “Crystallization method and bioavailability” (GRUNENTHAL GMBH, priority 2016, dated 2019).

Assay: Rat PK study: plasma concentrations of zoledronic acid after IV, oral gavage or intraduodenal (ID) dosing, LC/MS/MS
Type: in vivo, Sprague-Dawley Rats
Experimental: USA. […] Surgical catheters (jugular vein) were implanted prior to the study. […] IV Administration: the dose of zoledronic acid for IV administration was 0.5 mg/kg. […] Oral gavage administration: solid suspensions were administered. […] For solid suspensions, animals were administered 5 mg/kg of zoledronic acid or 5 mg/kg of zoledronic acid in zoledronic acid complexes contained in a suspension of PEG 400. • iii. Duodenal cannula administration: solid suspensions were administered. […] For solid suspensions, animals were administered 5 mg/kg of zoledronic acid or 5 mg/kg of zoledronic acid in zoledronic acid complexes contained in a suspension of PEG 400. […] Group I (IV administration). Group members, designated IV doses are listed below IV comparator group, was conducted to calculate MAT (mean absorption time) and ka (absorption rate constant) for the oral groups. Group II (oral gavage): Group designations and oral doses are listed below: Group III (ID administration): Group designations and oral doses are listed below: Group IV (oral gavage): Group designations and oral doses are listed below: […]

Question: What does the source list for “Zoledronic Acid, Sodium Zoledronic Salt, and Water Complex”?
Answer: Average plasma concentration of 3 Rats (ID (duodenal cannula) 5 mg/kg zoledronic acid equivalent, PEG 400, time 0.25 hour): 39.99 ng/mL; Average plasma concentration of 3 Rats (ID (duodenal cannula) 5 mg/kg zoledronic acid equivalent, PEG 400, time 1 hour): 18.50 ng/mL; Average plasma concentration of 3 Rats (ID (duodenal cannula) 5 mg/kg zoledronic acid equivalent, PEG 400, time 4 hour): 0.71 ng/mL; Average plasma concentration of 3 Rats (ID (duodenal cannula) 5 mg/kg zoledronic acid equivalent, PEG 400, time 8 hour): 0.00 ng/mL; Average plasma concentration of 3 Rats (ID (duodenal cannula) 5 mg/kg zoledronic acid equivalent, PEG 400, time 24 hour): 0.00 ng/mL; Average plasma concentration of 3 Rats (PO gavage 5 mg/kg zoledronic acid equivalent, PEG 400, time 0.25 hour (Table 1)): 278.47 ng/mL; Average plasma concentration of 3 Rats (PO gavage 5 mg/kg zoledronic acid equivalent, PEG 400, time 0.5 hour (Table 1)): 280.20 ng/mL; Average plasma concentration of 3 Rats (PO gavage 5 mg/kg zoledronic acid equivalent, PEG 400, time 1 hour (Table 1)): 171.59 ng/mL; Average plasma concentration of 3 Rats (PO gavage 5 mg/kg zoledronic acid equivalent, PEG 400, time 4 hour (Table 1)): 13.42 ng/mL; Average plasma concentration of 3 Rats (PO gavage 5 mg/kg zoledronic acid equivalent, PEG 400, time 8 hour (Table 1)): 1.78 ng/mL; Average plasma concentration of 3 Rats (PO gavage 5 mg/kg zoledronic acid equivalent, PEG 400, time 24 hour (Table 1)): 0.00 ng/mL
